assay: xn = mol fraction of the nth substance listed; settings: 298.15 K; 101 kPa; x1 = 0.5

Which viscosity does the source give for OCCOCCOCCOCCO + CCCC[n+]1ccn(C)c1.O=S(=O)([O-])C(F)(F)F here?
Its viscosity is 53.2 mPa·s.

With OCCOCCOCCOCCO + CC[n+]1ccn(C)c1.O=S(=O)([N-]S(=O)(=O)C(F)(F)F)C(F)(F)F as the compound, how does the viscosity read?
Its viscosity is 37.5 mPa·s.

With OCCOCCOCCOCCO + CCCC[N+]1(C)CCCC1.O=S(=O)([N-]S(=O)(=O)C(F)(F)F)C(F)(F)F as the compound, how does the viscosity read?
Its viscosity is 50.3 mPa·s.

same assay, conditions: 298.15 K; 101 kPa; x1 = 1

For OCCOCCOCCOCCO + CCCC[N+]1(C)CCCCC1.O=S(=O)([N-]S(=O)(=O)C(F)(F)F)C(F)(F)F, which viscosity is on record?
Its viscosity is 45.8 mPa·s.

For OCCOCCOCCOCCO + CCCC[n+]1ccn(C)c1.O=S(=O)([O-])C(F)(F)F, which viscosity is on record?
Its viscosity is 45.4 mPa·s.

Which viscosity does the source give for OCCOCCOCCOCCO + CCCC[n+]1ccn(C)c1C.F[B-](F)(F)F here?
The viscosity was 45.6 mPa·s.

With OCCOCCOCCOCCO + C[N+](C)(C)CCO.O=S(=O)([N-]S(=O)(=O)C(F)(F)F)C(F)(F)F as the compound, how does the viscosity read?
Its viscosity is 46.5 mPa·s.

For OCCOCCOCCOCCO + CCCn1cc[n+](C)c1C.O=S(=O)([N-]S(=O)(=O)C(F)(F)F)C(F)(F)F, which viscosity is on record?
Its viscosity is 45.8 mPa·s.

With OCCOCCOCCOCCO + CC[n+]1ccn(C)c1.O=S(=O)([N-]S(=O)(=O)C(F)(F)F)C(F)(F)F as the compound, how does the viscosity read?
Its viscosity is 46.5 mPa·s.

With OCCOCCOCCOCCO + CCCC[N+]1(C)CCCC1.O=S(=O)([N-]S(=O)(=O)C(F)(F)F)C(F)(F)F as the compound, how does the viscosity read?
Its viscosity is 46.5 mPa·s.

— a compilation of properties of binary mixtures (doi:10.1021/acs.jpcb.6b12122)
